The chains behind the UniProt entries cited, without tags or fusion partners. Where a name states a change or a piece, a line headed by the entry shows the natural chain unless it says otherwise. Residues count along the entry.
UniProt Q8TBX8: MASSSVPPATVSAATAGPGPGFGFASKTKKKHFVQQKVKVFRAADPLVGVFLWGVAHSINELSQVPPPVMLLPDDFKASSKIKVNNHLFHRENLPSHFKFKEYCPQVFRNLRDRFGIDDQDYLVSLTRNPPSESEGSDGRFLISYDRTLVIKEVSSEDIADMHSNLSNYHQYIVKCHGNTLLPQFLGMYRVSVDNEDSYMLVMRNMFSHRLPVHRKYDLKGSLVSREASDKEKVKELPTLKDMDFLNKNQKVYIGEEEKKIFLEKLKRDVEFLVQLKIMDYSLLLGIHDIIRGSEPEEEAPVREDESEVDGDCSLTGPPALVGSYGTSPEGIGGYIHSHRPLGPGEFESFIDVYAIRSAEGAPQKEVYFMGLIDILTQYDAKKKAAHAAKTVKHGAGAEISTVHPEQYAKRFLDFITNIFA
UniProt Q04912, 25-1400: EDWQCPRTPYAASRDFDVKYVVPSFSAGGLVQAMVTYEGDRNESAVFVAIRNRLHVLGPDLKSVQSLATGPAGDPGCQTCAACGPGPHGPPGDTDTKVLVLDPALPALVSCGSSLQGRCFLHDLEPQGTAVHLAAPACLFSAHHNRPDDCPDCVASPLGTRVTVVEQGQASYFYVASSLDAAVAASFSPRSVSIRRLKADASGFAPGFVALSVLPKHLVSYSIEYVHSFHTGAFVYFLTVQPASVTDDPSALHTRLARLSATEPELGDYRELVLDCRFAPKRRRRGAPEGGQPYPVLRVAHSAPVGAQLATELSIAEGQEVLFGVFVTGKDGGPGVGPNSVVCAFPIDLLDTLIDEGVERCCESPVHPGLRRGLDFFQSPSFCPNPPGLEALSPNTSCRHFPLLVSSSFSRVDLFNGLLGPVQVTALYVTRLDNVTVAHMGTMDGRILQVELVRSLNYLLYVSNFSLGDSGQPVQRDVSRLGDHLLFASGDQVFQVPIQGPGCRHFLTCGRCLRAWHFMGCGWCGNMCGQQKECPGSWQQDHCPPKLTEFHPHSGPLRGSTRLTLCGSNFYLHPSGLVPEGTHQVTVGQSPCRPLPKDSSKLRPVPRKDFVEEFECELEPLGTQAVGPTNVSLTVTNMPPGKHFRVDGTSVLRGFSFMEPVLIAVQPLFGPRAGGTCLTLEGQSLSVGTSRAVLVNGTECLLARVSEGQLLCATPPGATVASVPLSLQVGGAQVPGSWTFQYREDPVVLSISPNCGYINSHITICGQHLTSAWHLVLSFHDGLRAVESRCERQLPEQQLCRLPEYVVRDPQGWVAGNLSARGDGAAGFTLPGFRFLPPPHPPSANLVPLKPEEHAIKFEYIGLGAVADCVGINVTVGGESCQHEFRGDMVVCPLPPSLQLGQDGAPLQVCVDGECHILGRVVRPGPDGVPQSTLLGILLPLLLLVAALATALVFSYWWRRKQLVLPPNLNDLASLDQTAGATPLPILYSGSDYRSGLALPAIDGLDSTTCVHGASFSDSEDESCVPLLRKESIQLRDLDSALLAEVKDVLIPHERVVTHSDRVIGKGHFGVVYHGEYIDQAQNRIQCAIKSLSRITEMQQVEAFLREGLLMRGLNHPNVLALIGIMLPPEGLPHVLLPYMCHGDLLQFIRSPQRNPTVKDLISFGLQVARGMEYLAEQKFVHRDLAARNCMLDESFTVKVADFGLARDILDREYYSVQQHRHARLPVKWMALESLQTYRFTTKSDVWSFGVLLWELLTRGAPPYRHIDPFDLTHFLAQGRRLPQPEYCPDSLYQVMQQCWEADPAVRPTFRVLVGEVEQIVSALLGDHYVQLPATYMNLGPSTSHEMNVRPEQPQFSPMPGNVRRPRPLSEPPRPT
UniProt P42336, whole entry: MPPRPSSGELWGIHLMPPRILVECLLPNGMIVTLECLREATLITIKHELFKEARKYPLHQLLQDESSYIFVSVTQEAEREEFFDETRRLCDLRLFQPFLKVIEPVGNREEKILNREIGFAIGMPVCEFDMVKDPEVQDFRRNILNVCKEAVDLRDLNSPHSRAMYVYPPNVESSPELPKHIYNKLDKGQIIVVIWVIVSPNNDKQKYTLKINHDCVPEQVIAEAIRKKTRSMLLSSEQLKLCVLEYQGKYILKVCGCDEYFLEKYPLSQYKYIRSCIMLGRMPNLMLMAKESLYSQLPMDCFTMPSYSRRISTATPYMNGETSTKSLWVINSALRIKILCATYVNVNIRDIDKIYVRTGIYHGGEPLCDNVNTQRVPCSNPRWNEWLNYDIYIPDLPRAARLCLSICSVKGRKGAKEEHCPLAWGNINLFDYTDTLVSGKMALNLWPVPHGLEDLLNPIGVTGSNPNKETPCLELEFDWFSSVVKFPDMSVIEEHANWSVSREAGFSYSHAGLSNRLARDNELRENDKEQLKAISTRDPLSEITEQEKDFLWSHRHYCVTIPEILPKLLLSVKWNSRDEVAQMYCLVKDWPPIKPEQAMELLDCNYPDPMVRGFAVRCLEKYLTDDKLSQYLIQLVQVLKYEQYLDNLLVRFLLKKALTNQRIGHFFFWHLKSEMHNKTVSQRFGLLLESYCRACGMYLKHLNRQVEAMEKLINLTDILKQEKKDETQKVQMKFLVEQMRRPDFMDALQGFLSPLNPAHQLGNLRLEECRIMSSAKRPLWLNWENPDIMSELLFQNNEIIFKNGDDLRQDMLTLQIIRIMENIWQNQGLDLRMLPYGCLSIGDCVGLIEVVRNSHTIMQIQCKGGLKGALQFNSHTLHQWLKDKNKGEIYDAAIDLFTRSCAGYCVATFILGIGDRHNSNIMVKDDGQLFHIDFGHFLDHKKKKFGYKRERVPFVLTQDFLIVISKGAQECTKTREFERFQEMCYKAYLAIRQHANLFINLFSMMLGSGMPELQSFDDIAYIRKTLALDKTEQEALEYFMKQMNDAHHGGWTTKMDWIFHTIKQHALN
UniProt Q13873, 27-1038: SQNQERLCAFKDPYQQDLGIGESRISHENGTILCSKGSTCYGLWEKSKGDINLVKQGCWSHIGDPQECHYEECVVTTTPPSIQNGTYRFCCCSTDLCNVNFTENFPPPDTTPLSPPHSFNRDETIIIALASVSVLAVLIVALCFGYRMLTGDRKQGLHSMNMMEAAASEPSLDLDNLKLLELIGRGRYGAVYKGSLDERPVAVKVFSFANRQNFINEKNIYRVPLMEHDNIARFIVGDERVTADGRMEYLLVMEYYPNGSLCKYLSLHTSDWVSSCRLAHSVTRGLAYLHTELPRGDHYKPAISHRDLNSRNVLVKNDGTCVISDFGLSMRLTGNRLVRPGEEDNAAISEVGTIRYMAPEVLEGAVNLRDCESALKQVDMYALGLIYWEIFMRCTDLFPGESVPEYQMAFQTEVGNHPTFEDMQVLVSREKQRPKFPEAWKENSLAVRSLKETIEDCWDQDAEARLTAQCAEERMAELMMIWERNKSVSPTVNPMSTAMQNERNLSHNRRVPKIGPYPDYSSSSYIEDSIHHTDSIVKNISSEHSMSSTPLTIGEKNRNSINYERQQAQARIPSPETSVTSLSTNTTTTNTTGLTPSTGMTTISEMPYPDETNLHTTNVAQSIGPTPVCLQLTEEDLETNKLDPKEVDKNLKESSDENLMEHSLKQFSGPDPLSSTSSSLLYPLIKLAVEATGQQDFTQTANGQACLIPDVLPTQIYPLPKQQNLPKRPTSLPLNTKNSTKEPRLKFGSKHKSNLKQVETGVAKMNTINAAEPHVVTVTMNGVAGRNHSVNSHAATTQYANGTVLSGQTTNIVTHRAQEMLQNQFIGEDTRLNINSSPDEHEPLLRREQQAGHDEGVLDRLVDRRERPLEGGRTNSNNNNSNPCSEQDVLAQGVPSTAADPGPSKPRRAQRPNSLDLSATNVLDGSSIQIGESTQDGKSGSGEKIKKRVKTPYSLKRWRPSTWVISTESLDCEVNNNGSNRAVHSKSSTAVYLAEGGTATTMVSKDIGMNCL
UniProt O14920: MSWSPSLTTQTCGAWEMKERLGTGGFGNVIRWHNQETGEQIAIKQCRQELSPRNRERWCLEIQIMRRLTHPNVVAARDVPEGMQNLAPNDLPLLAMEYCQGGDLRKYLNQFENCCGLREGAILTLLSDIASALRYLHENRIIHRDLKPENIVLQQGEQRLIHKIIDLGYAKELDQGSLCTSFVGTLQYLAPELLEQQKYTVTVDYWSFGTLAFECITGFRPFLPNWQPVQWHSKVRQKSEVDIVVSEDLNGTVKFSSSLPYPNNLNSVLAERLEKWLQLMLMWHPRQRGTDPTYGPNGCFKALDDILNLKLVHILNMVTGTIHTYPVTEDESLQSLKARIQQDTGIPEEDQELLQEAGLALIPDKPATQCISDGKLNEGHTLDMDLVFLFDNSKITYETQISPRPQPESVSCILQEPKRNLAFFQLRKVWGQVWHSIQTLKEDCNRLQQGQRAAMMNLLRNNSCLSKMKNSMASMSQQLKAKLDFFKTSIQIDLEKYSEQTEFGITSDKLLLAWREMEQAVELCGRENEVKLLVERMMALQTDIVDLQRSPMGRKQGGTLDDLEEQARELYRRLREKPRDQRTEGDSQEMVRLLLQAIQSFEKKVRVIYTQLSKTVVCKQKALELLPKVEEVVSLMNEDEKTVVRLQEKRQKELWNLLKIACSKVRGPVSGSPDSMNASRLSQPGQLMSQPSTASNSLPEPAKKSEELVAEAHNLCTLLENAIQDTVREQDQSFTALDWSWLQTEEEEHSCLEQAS
UniProt P42684, whole entry: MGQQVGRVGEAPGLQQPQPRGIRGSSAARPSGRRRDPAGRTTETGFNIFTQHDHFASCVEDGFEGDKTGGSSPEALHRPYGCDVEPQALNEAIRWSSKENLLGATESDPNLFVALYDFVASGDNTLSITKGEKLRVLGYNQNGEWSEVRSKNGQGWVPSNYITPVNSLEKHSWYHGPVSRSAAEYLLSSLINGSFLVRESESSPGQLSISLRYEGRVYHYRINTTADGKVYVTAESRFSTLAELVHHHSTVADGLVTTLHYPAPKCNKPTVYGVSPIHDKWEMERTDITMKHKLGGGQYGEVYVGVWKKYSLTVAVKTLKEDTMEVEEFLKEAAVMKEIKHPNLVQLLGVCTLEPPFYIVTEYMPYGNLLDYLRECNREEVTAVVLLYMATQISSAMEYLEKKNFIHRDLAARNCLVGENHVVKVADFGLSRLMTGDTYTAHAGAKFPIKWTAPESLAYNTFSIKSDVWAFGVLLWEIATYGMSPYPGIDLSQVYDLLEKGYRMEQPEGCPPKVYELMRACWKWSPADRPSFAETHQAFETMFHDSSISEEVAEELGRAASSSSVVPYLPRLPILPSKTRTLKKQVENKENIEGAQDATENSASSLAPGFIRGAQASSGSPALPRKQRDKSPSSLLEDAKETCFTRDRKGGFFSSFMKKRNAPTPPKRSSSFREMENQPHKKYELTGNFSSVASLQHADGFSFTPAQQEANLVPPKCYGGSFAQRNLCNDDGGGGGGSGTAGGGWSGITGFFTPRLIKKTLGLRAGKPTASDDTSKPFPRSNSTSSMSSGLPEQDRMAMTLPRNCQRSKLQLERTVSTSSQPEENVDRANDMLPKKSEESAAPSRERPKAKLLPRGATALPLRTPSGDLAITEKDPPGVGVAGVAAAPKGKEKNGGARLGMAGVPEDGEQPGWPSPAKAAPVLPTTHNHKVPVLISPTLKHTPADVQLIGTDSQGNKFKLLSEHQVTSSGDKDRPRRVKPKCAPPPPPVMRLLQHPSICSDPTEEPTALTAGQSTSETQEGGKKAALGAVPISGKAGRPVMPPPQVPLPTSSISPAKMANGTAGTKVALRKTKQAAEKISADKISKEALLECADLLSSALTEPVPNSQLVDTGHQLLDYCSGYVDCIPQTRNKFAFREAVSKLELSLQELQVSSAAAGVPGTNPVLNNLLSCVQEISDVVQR
UniProt Q9NWZ3, whole entry: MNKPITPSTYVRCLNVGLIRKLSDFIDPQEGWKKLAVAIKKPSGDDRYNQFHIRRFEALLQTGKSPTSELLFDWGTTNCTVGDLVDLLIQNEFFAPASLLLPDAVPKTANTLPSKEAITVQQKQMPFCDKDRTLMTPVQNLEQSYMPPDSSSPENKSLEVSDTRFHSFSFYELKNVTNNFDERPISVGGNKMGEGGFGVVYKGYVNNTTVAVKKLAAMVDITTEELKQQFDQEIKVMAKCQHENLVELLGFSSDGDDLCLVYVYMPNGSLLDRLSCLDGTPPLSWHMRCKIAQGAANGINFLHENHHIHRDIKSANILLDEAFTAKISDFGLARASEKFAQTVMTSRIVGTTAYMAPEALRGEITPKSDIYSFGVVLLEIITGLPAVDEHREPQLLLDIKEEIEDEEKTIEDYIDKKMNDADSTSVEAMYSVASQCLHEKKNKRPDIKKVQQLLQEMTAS
UniProt Q00535, whole entry: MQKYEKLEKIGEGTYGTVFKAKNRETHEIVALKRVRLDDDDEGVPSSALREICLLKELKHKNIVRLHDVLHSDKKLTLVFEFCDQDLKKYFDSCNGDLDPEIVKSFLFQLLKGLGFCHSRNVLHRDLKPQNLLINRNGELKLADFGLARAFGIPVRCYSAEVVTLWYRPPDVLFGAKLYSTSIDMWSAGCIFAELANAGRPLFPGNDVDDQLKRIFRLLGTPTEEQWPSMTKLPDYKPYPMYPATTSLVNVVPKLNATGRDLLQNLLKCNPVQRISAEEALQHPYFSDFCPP

According to PMC3914206:

Assays:
Assay type in all cases: binding
Settings in all cases: Compound Concentration 10 µM
panel of 442 kinases [1] = target: T1, panel of 442 kinases (Homo sapiens, UniProt P35916)
T1 construct: purchased KINOMEscan
Description: (§1) We assessed the selectivity of members of this scaffold using the KINOMEscan methodology across a near comprehensive panel of 442 kinases [[18,27]].

panel of 442 kinases [2] = target: T2, panel of 442 kinases (Homo sapiens, UniProt P04626)
T2 construct: purchased KINOMEscan
Description: as §1

panel of 442 kinases [3] = target: T3, panel of 442 kinases (Homo sapiens, UniProt Q15831)
T3 construct: purchased KINOMEscan
Description: as §1

panel of 442 kinases [4] = target: T4, panel of 442 kinases (Homo sapiens, UniProt Q00536)
T4 construct: purchased KINOMEscan
Description: as §1

panel of 442 kinases [5] = target: T5, panel of 442 kinases (Homo sapiens, UniProt P45985)
T5 construct: purchased KINOMEscan
Description: as §1

panel of 442 kinases [6] = target: T6, panel of 442 kinases (Homo sapiens, UniProt O75676)
T6 construct: purchased KINOMEscan
Description: as §1

panel of 442 kinases [7] = target: T7, panel of 442 kinases (Homo sapiens, UniProt Q9UQ88)
T7 construct: purchased KINOMEscan
Description: as §1

panel of 442 kinases [8] = target: T8, panel of 442 kinases (Homo sapiens, UniProt P15056)
T8 construct: purchased KINOMEscan
Description: as §1

panel of 442 kinases [9] = target: T9, panel of 442 kinases (Homo sapiens, UniProt P27361)
T9 construct: purchased KINOMEscan
Description: as §1

panel of 442 kinases [10] = target: T10, panel of 442 kinases (Homo sapiens, UniProt P07949)
T10 construct: purchased KINOMEscan
Description: as §1

panel of 442 kinases [11] = target: T11, panel of 442 kinases (Homo sapiens, UniProt Q8TBX8)
T11 construct: purchased KINOMEscan
Description: as §1

panel of 442 kinases [12] = target: T12, panel of 442 kinases (Homo sapiens, UniProt Q04912)
T12 construct: purchased KINOMEscan
Description: as §1

panel of 442 kinases [13] = target: T13, panel of 442 kinases (Homo sapiens, UniProt P16234)
T13 construct: purchased KINOMEscan
Description: as §1

panel of 442 kinases [14] = target: T14, panel of 442 kinases (Homo sapiens, UniProt P10721, V559D/V654A)
T14 construct: purchased KINOMEscan
Description: as §1

panel of 442 kinases [15] = target: T15, panel of 442 kinases (Homo sapiens, UniProt Q8IY84)
T15 construct: purchased KINOMEscan
Description: as §1

panel of 442 kinases [16] = target: T16, panel of 442 kinases (Homo sapiens, UniProt P00533, L858R/T790M)
T16 construct: purchased KINOMEscan
Description: as §1

panel of 442 kinases [17] = target: T17, panel of 442 kinases (Homo sapiens, UniProt P42336)
T17 construct: purchased KINOMEscan
Description: as §1

panel of 442 kinases [18] = target: T18, panel of 442 kinases (Homo sapiens, UniProt Q13873)
T18 construct: purchased KINOMEscan
Description: as §1

panel of 442 kinases [19] = target: T19, panel of 442 kinases (Homo sapiens, UniProt O14920)
T19 construct: purchased KINOMEscan
Description: as §1

panel of 442 kinases [20] = target: T20, panel of 442 kinases (Homo sapiens, UniProt P42684)
T20 construct: purchased KINOMEscan
Description: as §1

panel of 442 kinases [21] = target: T21, panel of 442 kinases (Homo sapiens, UniProt Q8N5S9)
T21 construct: purchased KINOMEscan
Description: as §1

panel of 442 kinases [22] = target: T22, panel of 442 kinases (Homo sapiens, UniProt P07332)
T22 construct: purchased KINOMEscan
Description: as §1

panel of 442 kinases [23] = target: T23, panel of 442 kinases (Homo sapiens, UniProt Q9NWZ3)
T23 construct: purchased KINOMEscan
Description: as §1

panel of 442 kinases [24] = target: T24, panel of 442 kinases (Homo sapiens, UniProt Q8N752)
T24 construct: purchased KINOMEscan
Description: as §1

panel of 442 kinases [25] = target: T25, panel of 442 kinases (Homo sapiens, UniProt Q00535)
T25 construct: purchased KINOMEscan
Description: as §1

panel of 442 kinases [26] = target: T26, panel of 442 kinases (Homo sapiens, UniProt O43283)
T26 construct: purchased KINOMEscan
Description: as §1

panel of 442 kinases [27] = target: T27, panel of 442 kinases (Homo sapiens, UniProt Q5S007)
T27 construct: purchased KINOMEscan
Description: as §1

panel of 442 kinases [28] = target: T28, panel of 442 kinases (Homo sapiens, UniProt P36888, D835Y)
T28 construct: purchased KINOMEscan
Description: as §1

panel of 442 kinases [29] = target: T29, panel of 442 kinases (Homo sapiens, UniProt O75582)
T29 construct: purchased KINOMEscan
Description: as §1

COc1cc(C(=O)N2CCC(N3CCN(C)CC3)CC2)ccc1Nc1ncc2c(n1)N1CCc3cccc(c31)C(=O)N2C [Compound 24]
KINOMEscan: FLT4 (panel of 442 kinases [1]): 84
KINOMEscan: ERBB2 (panel of 442 kinases [2]): 100
KINOMEscan: LKB1 (panel of 442 kinases [3]): 90
KINOMEscan: PCTK1 (panel of 442 kinases [4]): 100
KINOMEscan: MEK4 (panel of 442 kinases [5]): 100
KINOMEscan: RPS6KA4(Kin.Dom.1-N-terminal) (panel of 442 kinases [6]): 100
KINOMEscan: CDC2L2 (panel of 442 kinases [7]): 100
KINOMEscan: BRAF (panel of 442 kinases [8]): 100
KINOMEscan: ERK1 (panel of 442 kinases [9]): 94
KINOMEscan: RET (panel of 442 kinases [10]): 100
KINOMEscan: PIP5K2C (panel of 442 kinases [11]): 38
KINOMEscan: MST1R (panel of 442 kinases [12]): 100
KINOMEscan: PDGFRA (panel of 442 kinases [13]): 100
KINOMEscan: KIT(V559D,V654A) (panel of 442 kinases [14]): 100
KINOMEscan: NIM1 (panel of 442 kinases [15]): 100
KINOMEscan: EGFR(L858R,T790M) (panel of 442 kinases [16]): 100
KINOMEscan: PIK3CA (panel of 442 kinases [17]): 70
KINOMEscan: BMPR2 (panel of 442 kinases [18]): 100
KINOMEscan: IKK-beta (panel of 442 kinases [19]): 100
KINOMEscan: ABL2 (panel of 442 kinases [20]): 100
KINOMEscan: CAMKK1 (panel of 442 kinases [21]): 77
KINOMEscan: FES (panel of 442 kinases [22]): 100
KINOMEscan: IRAK4 (panel of 442 kinases [23]): 100
KINOMEscan: CSNK1A1L (panel of 442 kinases [24]): 100
KINOMEscan: CDK5 (panel of 442 kinases [25]): 100
KINOMEscan: LZK (panel of 442 kinases [26]): 100
KINOMEscan: LRRK2 (panel of 442 kinases [27]): 20
KINOMEscan: FLT3(D835Y) (panel of 442 kinases [28]): 100
KINOMEscan: RPS6KA5(Kin.Dom.1-N-terminal) (panel of 442 kinases [29]): 100
